The values that follow come from patent US20260276643A1, “METHODS FOR PREDICTING AND IMPROVING THERAPEUTIC EFFICACY OF CANCER TREATMENTS AND METHODS FOR CANCER PROGNOSIS” (Università degli studi di Verona, priority 2023, published 2026).

The test system of this experiment is CLDN18 expression in DANG cells. Description: CLDN18 exogenous regulation in vitro: CLDN18 staining of treated DANG cells. Type of experiment: cell-based, human. The note with it: extended experiment, FIG. 11.

On to CoCl2, for which the “CLDN18 expression (percentage of CLDN18+ cells)” value is recorded as “with the exemption of CoCL2, PX-478 all induced CLDN18 expression in DANG cells”.
As for `N[C@@H](Cc1ccc([N+]([O-])(CCCl)CCCl)cc1)C(=O)O`, the “CLDN18 expression (percentage of CLDN18+ cells)” value is “with the exemption of CoCL2, PX-478 all induced CLDN18 expression in DANG cells”.
